Experimental data taken from patent US20190092792A1, “VINORELBINE MONOTARTRATE AND ITS PHARMACEUTICAL USE” (priority 2016, published 2019).

Assay: Comparable stressing stability study at 60° C. (total degradation impurities by HPLC)
Assay type: physicochemical
Conditions: for Total degradation impurities: 60° C.
Description: The degradation impurities are determined after a specific amount of time of incubation by means of HPLC.
The term “degradation impurities”, as used herein, is to be understood such a sample of the relevant product is subjected to HPLC analysis and calculation of the content of impurities in Vinorelbine is performed according to the method described in European Pharmacopoeia 7.0.
HPLC analysis and calculation of the content of impurities in Vinorelbine were performed according to the method described in European Pharmacopoeia 7.0.

Question: Which results are given for “vinorelbine monotartrate isopropanol solvate”?
Answer: Total degradation impurities (1 week): LT 0.05%; Total degradation impurities (3 weeks): 0.05%; Total degradation impurities (8 weeks): 0.15%; chemical degradation (in words) (one week storage at 60° C.): didn't show any chemical degradation
